From US20160346320A1, “SUBSTANCE FOR INHIBITING TISSUE CALCIFICATION, TISSUE FIBROSATION AND AGE-RELATED DISEASES” (Fresenius Kabi Deutschland GmbH, priority 2013, published 2016) come the findings set out here.

Test [1] has as its system klotho^hm mice. The test is described as follows: histology of tissue calcification (H&E, von Kossa) in klotho^hm mice. The following applies: klotho^hm mice 8 weeks old; drinking water: (NH4)2SO4 0.14 M, NH4Cl 0.28 M, NH4NO3 0.28 M, acetazolamide 800 mg/l, chloroquine diphosphate 0.288 mg/ml.
Test [2] deals with klotho^hm mice. Nature of the test: survival / lifespan of klotho^hm mice. The following applies: treatment in drinking water, versus untreated.

Only a part of the results on these compounds is given; other tests are left out.

On to Ammonium nitrate, for which the “calcification in analyzed tissues (trachea, lungs, kidneys, stomach, vessels)” value in test [1] is “strongly reduce”. In test [2], the lifespan result is given as “drastic extension of the lifespans”.
